Among the data in patent US20160376333A1 (University of Washington, published 2016) are Kd values, retold here.

Amino acid sequences for entries named in this document (tags omitted). A change or cut given only in a name is not applied to a line headed by its entry.
UniProt Q07817: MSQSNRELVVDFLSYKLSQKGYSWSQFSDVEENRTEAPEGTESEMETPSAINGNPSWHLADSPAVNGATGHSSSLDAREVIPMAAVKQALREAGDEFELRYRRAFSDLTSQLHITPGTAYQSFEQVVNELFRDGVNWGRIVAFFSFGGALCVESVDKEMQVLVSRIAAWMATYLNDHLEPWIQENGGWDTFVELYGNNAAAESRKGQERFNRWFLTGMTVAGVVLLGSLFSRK
UniProt P10415: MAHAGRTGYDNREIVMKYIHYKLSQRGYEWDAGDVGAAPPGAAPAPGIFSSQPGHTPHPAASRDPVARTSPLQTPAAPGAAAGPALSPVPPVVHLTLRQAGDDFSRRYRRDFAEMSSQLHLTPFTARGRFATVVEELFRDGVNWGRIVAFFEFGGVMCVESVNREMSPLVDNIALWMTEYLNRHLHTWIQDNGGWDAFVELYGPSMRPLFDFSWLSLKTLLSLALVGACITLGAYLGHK

Common to all, as to test: yeast surface display titration (apparent KD)
In experiment [1] the target is T1, human Bcl-XL a.a. 1-205 with C-terminal avi-6his tag (human, UniProt Q07817 2-206).
T1 construct: also called BCL2L1

Experiment [2] deals with T2, human Bcl-w a.a. 1-182 with C-terminal avi-6his tag (human, UniProt Q92843 1-182).
T2 construct: range 1-182; also called BCL2L2
T2 sequence: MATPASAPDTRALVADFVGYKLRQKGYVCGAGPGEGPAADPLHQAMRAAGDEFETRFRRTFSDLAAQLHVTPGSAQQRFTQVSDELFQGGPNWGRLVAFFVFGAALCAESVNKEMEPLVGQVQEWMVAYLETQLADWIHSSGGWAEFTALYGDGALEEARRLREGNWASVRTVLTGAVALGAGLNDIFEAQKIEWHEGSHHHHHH

Experiment [3] concerns the target human Bcl-2 a.a. 1-207 with C-terminal avi-6his tag (human, UniProt P10415 2-207).

B1: BbpD04.3 (designed binder)
chain: ADWKKVLDKAKDIAENRVRELKQKLEEFYKEAMKLDLTQEMRRKLMLRWIAAMLMAIGDIFNAIRQAKQEADKLKKAGLVNSQQLDELKRRLEELKEEASRKARDYGREFQLKLEY
Take B1: the Kd in experiment [1] turned out to be 34 nM; in experiment [2], 34 nM; in experiment [3] it was 20 nM.
